In this test the target is Neuronal acetylcholine receptor subunit alpha-7 (Homo sapiens, UniProt P36544). Put plainly: Binding affinity to nACh alpha7 receptor (unknown origin) assessed as inhibition constant.

Amino acid sequences for entries named in this document (tags omitted).
UniProt P36544, whole entry: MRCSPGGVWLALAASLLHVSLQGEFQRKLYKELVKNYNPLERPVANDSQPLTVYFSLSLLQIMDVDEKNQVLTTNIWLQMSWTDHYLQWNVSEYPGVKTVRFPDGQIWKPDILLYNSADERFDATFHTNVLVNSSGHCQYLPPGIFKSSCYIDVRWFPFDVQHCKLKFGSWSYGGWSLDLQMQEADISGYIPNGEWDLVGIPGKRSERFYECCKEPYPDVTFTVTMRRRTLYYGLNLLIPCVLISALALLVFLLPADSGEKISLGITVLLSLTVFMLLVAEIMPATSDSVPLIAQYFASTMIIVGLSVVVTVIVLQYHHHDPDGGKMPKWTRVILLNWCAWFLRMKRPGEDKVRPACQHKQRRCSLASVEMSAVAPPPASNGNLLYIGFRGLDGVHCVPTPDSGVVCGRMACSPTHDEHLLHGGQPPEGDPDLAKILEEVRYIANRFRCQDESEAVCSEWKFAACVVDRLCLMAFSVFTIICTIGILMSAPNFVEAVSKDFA

As to `O=S1(=O)c2cc(N3CCN4CCC3CC4)ccc2-c2cccc([18F])c21`, the Ki was 562 nM.

The values are drawn from ChEMBL document CHEMBL5338767, “A Molecular Toolbox of Positron Emission Tomography Tracers for General Anesthesia Mechanism Research” (J Med Chem, 2023).
